Results published in ChEMBL document CHEMBL2390930, “Design, synthesis and evaluation of 1,2-benzisothiazol-3-one derivatives as potent caspase-3 inhibitors” (Bioorg Med Chem, 2013).

Molecular target: T1, Caspase-3 (Homo sapiens, UniProt P42574)
T1 sequence (P42574 whole entry): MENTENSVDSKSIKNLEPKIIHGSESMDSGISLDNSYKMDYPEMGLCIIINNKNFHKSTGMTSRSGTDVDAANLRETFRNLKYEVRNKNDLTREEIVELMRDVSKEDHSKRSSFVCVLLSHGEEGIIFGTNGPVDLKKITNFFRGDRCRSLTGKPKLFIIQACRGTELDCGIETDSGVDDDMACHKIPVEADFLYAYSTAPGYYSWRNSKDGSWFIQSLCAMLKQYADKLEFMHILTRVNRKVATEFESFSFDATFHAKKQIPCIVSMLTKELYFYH
Assay: Inhibition of recombinant human caspase-3 using Ac-LDEVD-AMC as substrate assessed as accumulation of 7-AMC incubated for 10 mins followed by substrate addition measured for 10 mins by fluorimetric analysis

IC50: 0.2 nM
SMILES: CC(=O)N[C@@H](CC(=O)O)C(=O)N[C@@H](CCC(=O)O)C(=O)N[C@H](C(=O)N[C@H](C=O)CC(=O)O)C(C)C
